Laboratory results: US10933061B2 (Shepherd Therapeutics, Inc., priority 2017, dated 2021)

Test system: TC-32 Ewing's sarcoma cells
Test: Chou-Talalay combination assay, Cell Titer Glo
Type: cell-based
Settings: 72 hour incubation

In the case of O=P1(N(CCCl)CCCl)NCCCO1 (stereo not shown) [Cyclophosphamide], the “Synergy with pyrvinium pamoate” value is reported as “No”.
